Results from patent US9776979B2, “EBI2 modulators” (Sanford-Burnham Medical Research Institute, priority 2013, dated 2017).

Amino acid sequences for entries named in this document (tags omitted).
UniProt P32249, whole entry: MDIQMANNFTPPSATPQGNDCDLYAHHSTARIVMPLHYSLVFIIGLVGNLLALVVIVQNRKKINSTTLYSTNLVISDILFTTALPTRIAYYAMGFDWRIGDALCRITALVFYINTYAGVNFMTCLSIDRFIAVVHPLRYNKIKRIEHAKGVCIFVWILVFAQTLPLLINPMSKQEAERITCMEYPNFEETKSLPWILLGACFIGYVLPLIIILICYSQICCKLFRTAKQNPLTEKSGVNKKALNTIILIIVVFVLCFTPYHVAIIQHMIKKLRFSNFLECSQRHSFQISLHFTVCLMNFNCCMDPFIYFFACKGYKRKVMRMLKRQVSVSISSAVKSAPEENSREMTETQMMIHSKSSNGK

Molecular target: EBI2 (Homo sapiens, UniProt P32249)
Experiment: Cell-based luminescent assay (EBI2 modulation)
Conditions: read-out: IC50 nM; cell-based luminescence; 7a,25-OHC final assay concentration 80 nM; 60 minutes incubation

O=C(/C=C/c1ccc(Br)cc1)N1CCC(Nc2ccc(Cl)cc2)CC1
IC50: < 100 nM
